{"sequences": {"note": "Sequences of proteins named here, by UniProt entry; tags and fusion partners are left off. A change or cut given only in a name is not applied to a line headed by its entry.", "UniProt P35370": "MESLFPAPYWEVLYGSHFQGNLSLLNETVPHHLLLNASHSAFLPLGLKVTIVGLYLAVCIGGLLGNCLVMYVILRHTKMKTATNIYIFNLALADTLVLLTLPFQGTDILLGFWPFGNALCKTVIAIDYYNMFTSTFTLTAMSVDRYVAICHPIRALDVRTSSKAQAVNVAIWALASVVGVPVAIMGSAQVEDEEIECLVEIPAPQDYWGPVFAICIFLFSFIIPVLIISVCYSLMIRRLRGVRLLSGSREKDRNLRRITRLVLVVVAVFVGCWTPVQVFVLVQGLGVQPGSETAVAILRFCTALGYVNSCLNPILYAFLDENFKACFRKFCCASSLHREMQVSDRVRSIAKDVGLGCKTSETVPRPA"}, "source": "patent US6406866B1", "about": "(OREGON HEALTH SCIENCES UNIVERSITY, dated 2002)", "target": "T1, novel mammalian opioid receptor (MSOR, LC132) (Rattus norvegicus, UniProt P35370)", "T1 construct": "The entire coding region of the receptor cDNA insert was subcloned in to the RcRSV vector; expressed in transfected cells", "type": "binding", "data": [{"substance": "c[D-penicillamine^2, Dpenicillamine^5]enkephalin [DPDPE]", "values": [{"measurement": "specific binding of the radioactively-labeled opioid agonist or antagonist", "result": "no specific binding"}]}]}
